Target: PAR2 (Homo sapiens, UniProt P55085)
Experiment: PAR2 activation: intracellular Ca2+ release (agonist) in HT29 cells
Details: agonist or partial agonist of Ca2+ release in HT29 cells

Protein sequences, listed by entry. Tags and fused reporters are not part of them. Residues count along the entry.
UniProt P55085, 26-397 limits assumed: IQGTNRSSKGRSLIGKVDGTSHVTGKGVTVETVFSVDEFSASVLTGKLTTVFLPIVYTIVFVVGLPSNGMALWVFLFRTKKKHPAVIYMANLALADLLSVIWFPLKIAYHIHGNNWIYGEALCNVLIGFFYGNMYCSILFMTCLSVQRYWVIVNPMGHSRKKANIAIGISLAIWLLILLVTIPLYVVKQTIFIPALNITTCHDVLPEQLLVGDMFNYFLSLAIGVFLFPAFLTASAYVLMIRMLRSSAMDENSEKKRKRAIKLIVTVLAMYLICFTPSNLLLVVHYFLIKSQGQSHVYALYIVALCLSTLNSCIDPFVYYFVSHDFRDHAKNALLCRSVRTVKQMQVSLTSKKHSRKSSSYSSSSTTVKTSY

| Compound | EC50 [nM] |
| --- | --- |
| CC[C@H](C)[C@H](NC(=O)[C@H](CC1CCCCC1)NC(=O)c1ccno1)C(=O)NCc1cccc(C(=O)N[C@@H](CCCN)C(N)=O)c1 | 200 |
| CC[C@H](C)[C@H](NC(=O)[C@H](CC1CCCCC1)NC(=O)c1ccno1)C(=O)NCc1cccc(C(=O)N[C@@H](CCN)C(N)=O)c1 | 200 |
